{"source": "patent US10434198B2", "about": "“Radiopharmaceutical solutions with advantageous properties” (Sciencons AS, priority 2015, dated 2019)", "conditions": "mouse, in vivo", "data": [{"substance": "TCMC-labeled trastuzumab: trastuzumab (Herceptin) monoclonal antibody conjugated with p-SCN-Bn-TCMC, scavenging ^212Pb in ^224Ra solution", "values": [{"measurement": "^224Ra biodistribution", "result": "very similar to that found in the biodistribution of chelator free radium solution"}]}]}
